These results are taken from PubChem BioAssay.

Chains of the proteins cited; added tags and fusions are not shown. Lines headed by an entry give the natural chain unless they say otherwise; changes in a name come on top.
UniProt P04839: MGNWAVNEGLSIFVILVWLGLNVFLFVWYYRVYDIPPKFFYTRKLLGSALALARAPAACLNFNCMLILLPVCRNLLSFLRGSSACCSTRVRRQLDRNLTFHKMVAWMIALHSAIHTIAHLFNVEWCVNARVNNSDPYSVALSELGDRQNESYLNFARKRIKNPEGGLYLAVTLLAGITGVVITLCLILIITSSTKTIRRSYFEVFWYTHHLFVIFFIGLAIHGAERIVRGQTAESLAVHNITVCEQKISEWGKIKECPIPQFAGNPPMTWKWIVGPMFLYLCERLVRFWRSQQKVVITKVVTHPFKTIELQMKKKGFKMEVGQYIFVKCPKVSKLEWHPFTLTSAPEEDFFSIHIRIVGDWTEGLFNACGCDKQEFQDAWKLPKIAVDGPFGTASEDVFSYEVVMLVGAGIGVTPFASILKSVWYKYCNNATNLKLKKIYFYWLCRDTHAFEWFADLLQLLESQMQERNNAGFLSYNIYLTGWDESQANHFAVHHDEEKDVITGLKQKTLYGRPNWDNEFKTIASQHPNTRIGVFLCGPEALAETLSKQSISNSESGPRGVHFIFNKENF
UniProt Q9NPH5: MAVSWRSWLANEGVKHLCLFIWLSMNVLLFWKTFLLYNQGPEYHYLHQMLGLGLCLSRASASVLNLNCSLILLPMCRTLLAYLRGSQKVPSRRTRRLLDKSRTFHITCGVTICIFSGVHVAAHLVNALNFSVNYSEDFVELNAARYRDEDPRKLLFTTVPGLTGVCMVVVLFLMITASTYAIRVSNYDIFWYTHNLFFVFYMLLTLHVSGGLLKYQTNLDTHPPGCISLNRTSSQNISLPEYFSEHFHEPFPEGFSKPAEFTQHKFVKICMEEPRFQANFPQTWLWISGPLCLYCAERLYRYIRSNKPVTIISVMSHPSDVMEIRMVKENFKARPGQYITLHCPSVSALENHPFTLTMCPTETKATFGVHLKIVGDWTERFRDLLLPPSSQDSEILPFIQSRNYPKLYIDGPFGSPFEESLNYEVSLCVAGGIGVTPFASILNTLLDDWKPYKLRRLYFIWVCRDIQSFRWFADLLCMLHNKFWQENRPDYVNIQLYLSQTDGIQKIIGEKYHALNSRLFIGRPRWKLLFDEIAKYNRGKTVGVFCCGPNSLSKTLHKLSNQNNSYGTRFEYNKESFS
UniProt Q96PH1: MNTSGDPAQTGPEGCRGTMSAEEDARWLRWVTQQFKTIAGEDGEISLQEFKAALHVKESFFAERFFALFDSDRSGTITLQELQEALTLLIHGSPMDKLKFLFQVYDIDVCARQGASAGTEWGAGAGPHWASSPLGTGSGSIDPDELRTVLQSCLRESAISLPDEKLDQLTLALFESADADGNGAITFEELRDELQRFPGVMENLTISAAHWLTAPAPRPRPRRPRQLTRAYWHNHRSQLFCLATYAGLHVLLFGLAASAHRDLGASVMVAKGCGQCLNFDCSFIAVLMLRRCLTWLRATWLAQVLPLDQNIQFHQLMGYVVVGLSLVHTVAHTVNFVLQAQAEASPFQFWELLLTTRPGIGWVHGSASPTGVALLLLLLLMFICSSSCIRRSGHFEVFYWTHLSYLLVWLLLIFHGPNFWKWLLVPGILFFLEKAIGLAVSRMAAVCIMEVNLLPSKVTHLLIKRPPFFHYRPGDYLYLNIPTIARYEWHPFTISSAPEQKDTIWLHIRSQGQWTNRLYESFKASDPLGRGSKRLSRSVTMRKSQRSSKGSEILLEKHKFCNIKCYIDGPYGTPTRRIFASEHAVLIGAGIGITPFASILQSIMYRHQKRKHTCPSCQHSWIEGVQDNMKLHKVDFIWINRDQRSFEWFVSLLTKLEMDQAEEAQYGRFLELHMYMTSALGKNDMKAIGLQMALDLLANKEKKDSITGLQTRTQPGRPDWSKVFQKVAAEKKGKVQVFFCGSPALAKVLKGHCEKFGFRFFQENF

Only a part is listed here, and it is no random draw. The list shows a part of the results. Active and inactive are the calls of the source.

The nature of test [1]: small-molecule binders of probe aLefty1, primary screen, biochemical, small-molecule microarray, 635/667 nm fluorescence (AID 1153).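 Also: score merges spot fluorescence with signal-to-noise ratio from the scanned slide images.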 The settings on record: higher = more signal.
Test [2] can be described thus: osmotic lysis modulators in infected erythrocytes, primary screen, PSAC antagonist project, cell-based, P. falciparum Indochina, OD700, 3 h (AID 1156). As to conditions: higher = more signal, called active from +8 up or from −8 down.
Test [3] is described as follows: PSAC antagonists in infected red cells, primary screen, cell-based, P. falciparum Indochina, OD700, 18 h (AID 1157). As to conditions: P. falciparum Indochina infected erythrocytes, osmotic lysis OD700, 18 h; higher = more signal, called active from +8 up or from −8 down.
Test [4] is described as follows: modulators of S6 phosphorylation in cells, primary screen, cell-based, A549, cytoblot, luminescence, serum-stimulated (AID 1158).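 Also: serum-stimulated A549 lung adenocarcinoma cells; signal is phosphorylated S6 detected by cytoblot immunostaining with HRP secondary.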 The settings on record: A549 phospho-S6 cytoblot, 5 h, higher = more signal.
The target in test [5] is NADPH oxidase 2 (Homo sapiens) (UniProt P04839). Description: NOX2-dependent H2O2 signal modulators, primary screen, NOX inhibitor project, cell-based, HEK293-NOX2, PMA-stimulated, Amplex Red fluorescence (AID 1159). Also: test concentration not given here. The settings on record: 45 min, higher = more signal, called active from +8 up or from −8 down.
Test [6] addresses NADPH oxidase 4 (Homo sapiens) (UniProt Q9NPH5). Briefly: NOX4-dependent H2O2 signal modulators, primary screen, NOX inhibitor project, cell-based, HEK293-NOX4, tetracycline-induced, Amplex Red fluorescence (AID 1160). The settings on record: 45 min, higher = more signal, called active from +8 up or from −8 down.
The target in test [7] is NADPH oxidase 5 (Homo sapiens) (UniProt Q96PH1). Briefly: NOX5-dependent H2O2 signal modulators, primary screen, NOX inhibitor project, cell-based, HEK293-NOX5, Amplex Red fluorescence (AID 1161). The settings on record: HEK293-NOX5, ionomycin, 45 min, higher = more signal.
Test [8] is described as follows: A549 cell viability effects, profiling panel, calcein-AM fluorescence, 48 h, basal (AID 1162). Also: test concentration not given here. The settings on record: higher = more signal.
Test [9] can be described thus: adipocyte viability effects, profiling panel, cell-based, 3T3-L1 adipocytes, calcein-AM fluorescence, 48 h, basal (AID 1163). Also: test concentration not given here. The settings on record: 3T3-L1 adipocytes viability, higher = more signal.
A short description of test [10]: HepG2 cell viability effects, profiling panel, calcein-AM fluorescence, 48 h, basal (AID 1164). Also: test concentration not given here. As to conditions: higher = more signal.
Test [11] is described as follows: MM1S cell viability effects, profiling panel, calcein-AM fluorescence, 48 h, basal (AID 1165).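 Also: viability of MM1S multiple myeloma cells under basal unstimulated conditions; test concentration not given here.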 The settings on record: higher = more signal.
Test [12] in a line: basal RPMI8226 viability, no added stimulus, profiling panel, cell-based, calcein-AM fluorescence, 48 h, PK04 Diversity Set (AID 1166).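 Also: cells grown under basal conditions without added stimulus; test concentration not given here.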 The settings on record: RPMI8226 myeloma viability, higher = more signal.
Test [13] is described as follows: basal HepG2 mitochondrial membrane potential changes, profiling panel, cell-based, JC-1 fluorescence, 24 h, 100 nL compound (AID 1167). Also: test concentration not given here. The settings on record: higher = more signal.
Test [14] can be described thus: basal 3T3-L1 adipocyte mitochondrial potential changes, profiling panel, cell-based, JC-1 fluorescence, 3T3-L1 adipocytes, 24 h, 100 nL compound (AID 1168). Also: test concentration not given here. As to conditions: JC-1 mitochondrial fluorescence, higher = more signal, called active from +8 up or from −8 down.
The nature of test [15]: basal RPMI8226 mitochondrial membrane potential changes, profiling panel, cell-based, JC-1 fluorescence, 24 h, 100 nL compound (AID 1169). Also: test concentration not given here. As to conditions: RPMI8226 myeloma, JC-1 mitochondrial potential fluorescence, higher = more signal.
A short description of test [16]: basal MM1S mitochondrial membrane potential changes, profiling panel, cell-based, JC-1 fluorescence, 24 h, 100 nL compound (AID 1170). Also: test concentration not given here. The settings on record: higher = more signal.
Test [17] is described as follows: A549 lung cancer cell viability effects, profiling panel, resazurin fluorescence, 24 h, PK04 Diversity Set (AID 1171). Also: test concentration not given here. The settings on record: higher = more signal, called active from +8 up or from −8 down.
Test [18] can be described thus: HepG2 liver cancer cell viability effects, profiling panel, resazurin fluorescence, 24 h, PK04 Diversity Set (AID 1172). Also: test concentration not given here. The settings on record: higher = more signal.
Test [19] in a line: basal S. cerevisiae growth modulation, no modifier, primary screen, OD600, strain BY4716, 24 h, basal condition (AID 1173). The settings on record: OD600, 24 h, higher = more signal, called active from +8 up or from −8 down.
A short description of test [20]: MM1S myeloma cell viability, profiling panel, resazurin fluorescence, basal, 24 h, PK04 Diversity Set (AID 1174).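 Also: MM1S multiple myeloma cell line; test concentration not given here.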 As to conditions: higher = more signal, called active from +8 up or from −8 down.

For the molecule `CC1C=C(CCCO)C/C(=N/P(=O)(Oc2ccccc2)Oc2ccccc2)N1Cc1cccc(OC(F)(F)F)c1` (stereo not given), the composite z-score in [1] was 0.0451. Moreover, the z-score in test [2] was inactive: 0.941; in [3] it was inactive: 0.454; in [4], 1.11; in test [5] it was inactive: 0.141; in [6], inactive: -0.0903; in [7], 0.093. The z-score was -0.758 in [8]; 0.541 in test [9]; -0.77 in [10]; -0.39 in test [11]; -1.2 in test [12]; 0.216 in [13]. Moreover, the z-score was inactive: 0.543 in [14]; 1.68 in [15]; 1.49 in [16]; inactive: -1.21 in test [17]; -0.955 in test [18]; inactive: -1.95 in [19]. The z-score in test [20] is inactive: -0.681.

In test [1], `COP(=O)(/N=C1/CC(CCCO)=CC(C2CC2)N1Cc1cccc(OC(F)(F)F)c1)OC` (stereo not given) showed a composite z-score of 0.167. For the same molecule, the z-score in test [2] is inactive: -0.38; in test [3] it was inactive: -1.12; in test [4], 3.92; in test [5] it was inactive: -1.15; in [6] it was inactive: -0.552; in [7], -0.148. Also, the z-score was 1.67 in test [8]; 1.02 in test [9]; 1.56 in test [10]; -0.489 in test [11]; -0.423 in [12]; 2.1 in test [13]. For the same molecule, the z-score is inactive: 1.04 in test [14]; -0.248 in test [15]; -1.3 in [16]; inactive: -0.144 in test [17]; -0.494 in test [18]; inactive: -4.23 in test [19]. In test [20], the z-score was inactive: 0.36.

Take `CN1/C(=N\P(=O)(Oc2ccccc2)Oc2ccccc2)CC(CCCO)=CC1c1ccc(CN2CCCC2)cc1` (stereo not given): the composite z-score in test [1] is -0.0362. The z-score in [2] is inactive: 0.16; in test [3], inactive: -0.017; in [4], 0.249; in test [5], inactive: -1.92; in test [6], inactive: -1.86; in [7], -0.425. Besides, the z-score was -0.3 in test [8]; 0.026 in test [9]; -1.1 in [10]; -0.0995 in test [11]; 0.0706 in test [12]; -0.164 in test [13]. The z-score was inactive: -0.32 in test [14]; -0.561 in test [15]; 0.105 in test [16]; inactive: 0.661 in test [17]; 0.134 in test [18]; inactive: 1.21 in [19]. Besides, the z-score in test [20] is inactive: -0.332.

`COP(=O)(/N=C1/CC(CCCO)=CC(C)N1Cc1cccc(OC(F)(F)F)c1)OC` (stereo not given) yielded a composite z-score in test [1] of 0.546. Besides, the z-score is inactive: -0.301 in test [2]; inactive: -1.54 in test [3]; 0.692 in test [4]; inactive: 1.71 in test [5]; inactive: 1.57 in test [6]; 1.39 in test [7]. Also, the z-score was 1.34 in test [8]; 0.305 in [9]; 1.1 in test [10]; 0.969 in [11]; 0.688 in [12]; 1.55 in [13]. Further, the z-score in test [14] was inactive: 0.821; in [15], -0.634; in test [16], 0.029; in [17], inactive: -0.64; in test [18], 0.113; in [19], inactive: -2.69. Further, the z-score in test [20] is inactive: 0.768.

The molecule `COP(=O)(/N=C1/CC(CCCO)=CC(C2CC2)N1Cc1sc2ccccc2c1Cl)OC` (stereo not given) displayed a composite z-score in test [1] of 1.72. The z-score in [2] was inactive: 1.11; in test [3] it was inactive: 1.17; in test [4] it was 0.312; in [5], inactive: 1.32; in test [6] it was inactive: 0.706; in test [7], 0.34. The z-score in [8] was 0.894; in test [9], 0.549; in test [10], 1.56; in test [11] it was -2.74; in test [12], -2.35; in test [13], 1.26. Also, the z-score was inactive: 1.08 in test [14]; -0.449 in test [15]; -0.603 in test [16]; inactive: 0.026 in [17]; 0.0405 in test [18]; active: -11.1 in test [19]. Further, the z-score in test [20] is inactive: -0.0498.

In turn, `COP(=O)(/N=C1/CC(CCCO)=CC(C2CC2)N1Cc1cc2c(cc1Br)OCO2)OC` (stereo not given) registered a composite z-score in [1] of 0.415. Besides, the z-score was inactive: 0.779 in test [2]; inactive: -0.485 in test [3]; 2.8 in [4]; inactive: -1.16 in test [5]; inactive: -0.223 in [6]; -0.529 in test [7]. Further, the z-score in [8] is 1.79; in [9], 1.3; in [10] it was 0.933; in test [11], -0.955; in test [12] it was 0.508; in test [13], 2.21. In addition, the z-score in [14] was inactive: 0.734; in test [15], 0.0331; in test [16] it was -1.34; in [17], inactive: -0.146; in [18] it was -0.0943; in test [19], inactive: -2.71. Besides, in test [20], the z-score was inactive: 0.248.

`COP(=O)(/N=C1/CC(c2ccc(CO)cc2)=CC(c2cccs2)N1C)OC` (stereo not given) displayed a composite z-score in test [1] of 0.568. The z-score in test [2] was inactive: 0.104; in [3] it was inactive: 0.355; in test [4], 0.682; in test [5] it was inactive: 0.0747; in test [6] it was inactive: -0.362; in test [7], -0.0548. Besides, the z-score in [8] is 0.721; in test [9], 0.609; in test [10], 1.28; in test [11], 0.606; in test [12], 0.7; in test [13] it was -0.199. Also, the z-score in test [14] was inactive: -0.103; in [15], 0.176; in test [16], -0.651; in test [17], inactive: -0.272; in test [18] it was -0.632; in test [19] it was inactive: -2.15. The z-score in test [20] was inactive: -0.608.
